Experiments:
human GLP-1R = molecular target: T1, human GLP-1R (Homo sapiens, UniProt P43220); assay: Agonist activity on human GLP-1R, CRE-luciferase reporter assay with increase in intracellular cAMP as indicator (hGLP-1R/CRE-luc/CHO-K1 cell); type: cell-based
T1 construct: FLAG (N)

The chains behind the UniProt entries cited, without tags or fusion partners. Residues count along the entry.
UniProt P43220, 24-463: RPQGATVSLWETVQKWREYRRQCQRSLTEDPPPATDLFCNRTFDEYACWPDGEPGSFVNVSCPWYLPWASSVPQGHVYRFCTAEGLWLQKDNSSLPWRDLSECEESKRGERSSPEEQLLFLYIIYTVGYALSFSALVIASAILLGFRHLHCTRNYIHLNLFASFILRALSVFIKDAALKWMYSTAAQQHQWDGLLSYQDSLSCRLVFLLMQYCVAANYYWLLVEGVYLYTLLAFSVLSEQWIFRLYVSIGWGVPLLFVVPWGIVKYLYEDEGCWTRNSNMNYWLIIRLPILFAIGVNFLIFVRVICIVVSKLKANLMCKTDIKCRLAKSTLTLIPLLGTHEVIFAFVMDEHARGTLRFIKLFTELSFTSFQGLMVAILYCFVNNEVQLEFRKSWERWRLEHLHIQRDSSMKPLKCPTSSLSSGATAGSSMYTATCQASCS

human GIPR = molecular target: T2, human GIPR (Homo sapiens, UniProt P48546); assay: Agonist activity on human GIPR, CRE-luciferase reporter assay with increase in intracellular cAMP as indicator (hGIPR/CRE-LUC/CHO-K1 cell); type: cell-based
T2 construct: FLAG (N)
T2 sequence (P48546 22-466): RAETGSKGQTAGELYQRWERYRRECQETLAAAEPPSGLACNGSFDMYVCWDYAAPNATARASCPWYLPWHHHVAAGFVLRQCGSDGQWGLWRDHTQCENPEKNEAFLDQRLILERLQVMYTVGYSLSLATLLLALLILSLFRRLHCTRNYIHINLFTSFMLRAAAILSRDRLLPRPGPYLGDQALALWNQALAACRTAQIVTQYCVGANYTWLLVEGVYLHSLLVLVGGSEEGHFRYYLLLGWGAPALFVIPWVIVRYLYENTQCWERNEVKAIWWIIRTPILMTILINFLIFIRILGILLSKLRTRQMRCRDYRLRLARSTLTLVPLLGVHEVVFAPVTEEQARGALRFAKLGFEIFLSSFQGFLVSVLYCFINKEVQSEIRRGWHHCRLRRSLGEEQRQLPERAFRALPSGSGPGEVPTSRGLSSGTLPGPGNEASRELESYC

Row | Compound | EC50 (human GLP-1R) | EC50 (human GIPR)
1 | CC[C@H](C)[C@H](NC(=O)[C@H](CO)NC(=O)[C@H](Cc1ccc(O)cc1)NC(=O)[C@H](CC(C)C)NC(=O)[C@H](CO)NC(=O)[C@@H](NC(=O)[C@@H](NC(=O)[C@@H](NC(=O)CNC(=O)[C@H](CCC(=O)O)NC(=O)C(C)(C)NC(=O)[C@@H](N)Cc1ccc(O)cc1)[C@@H](C)O)C(C)C)C(C)C)C(=O)NC(C)(C)C(=O)N[C@@H](CC(C)C)C(=O)N[C@@H](CC(=O)O)C(=O)N[C@@H](CCCCN)C(=O)N[C@@H](CCC(N)=O)C(=O)N[C@@H](C)C(=O)N[C@@H](CCC(N)=O)C(=O)NC(C)(C)C(=O)N[C@@H](CCC(=O)O)C(=O)N[C@@H](Cc1ccccc1)C(=O)N[C@H](C(=O)N[C@@H](CCCCN)C(=O)N[C@@H](Cc1c[nH]c2ccccc12)C(=O)N[C@@H](CC(C)C)C(=O)N[C@@H](CC(C)C)C(=O)N[C@@H](CCCCN)C(=O)NCC(=O)NCC(=O)N1CCC[C@H]1C(=O)N[C@@H](CO)C(=O)N[C@@H](CO)C(=O)NCC(=O)N[C@@H](C)C(=O)N1CCC[C@H]1C(=O)N1CCC[C@H]1C(=O)N1CCC[C@H]1C(=O)N[C@@H](CO)C(=O)N[C@@H](CCCCNC(=O)CCCCCCCCCCCCCCC(=O)O)C(N)=O)C(C)C [Compound 9] | 190 nM | 
2 | CC[C@H](C)[C@H](NC(=O)[C@H](CO)NC(=O)[C@H](Cc1ccc(O)cc1)NC(=O)[C@H](CC(C)C)NC(=O)[C@H](CO)NC(=O)[C@@H](NC(=O)[C@@H](NC(=O)[C@@H](NC(=O)CNC(=O)[C@H](CCC(=O)O)NC(=O)C(C)(C)NC(=O)[C@@H](N)Cc1ccc(O)cc1)[C@@H](C)O)C(C)C)C(C)C)C(=O)NC(C)(C)C(=O)N[C@@H](CC(C)C)C(=O)N[C@@H](CC(=O)O)C(=O)N[C@@H](CCCCN)C(=O)N[C@@H](CCC(N)=O)C(=O)N[C@@H](C)C(=O)N[C@@H](CCC(N)=O)C(=O)NC(C)(C)C(=O)N[C@@H](CCC(=O)O)C(=O)N[C@@H](Cc1ccccc1)C(=O)N[C@H](C(=O)N[C@@H](CCCCN)C(=O)N[C@@H](Cc1c[nH]c2ccccc12)C(=O)N[C@@H](CC(C)C)C(=O)N[C@@H](CC(C)C)C(=O)N[C@@H](CCCCN)C(=O)NCC(=O)NCC(=O)N1CCC[C@H]1C(=O)N[C@@H](CO)C(=O)N[C@@H](CO)C(=O)NCC(=O)N[C@@H](C)C(=O)N1CCC[C@H]1C(=O)N1CCC[C@H]1C(=O)N1CCC[C@H]1C(=O)N[C@@H](CO)C(=O)N[C@@H](CCCCNC(=O)CCCCCCCCCCCCCCCCCCC(=O)O)C(N)=O)C(C)C [Compound 1] | > 1000 nM | 0.76 nM
3 | CC[C@H](C)[C@H](NC(=O)[C@H](CO)NC(=O)[C@H](Cc1ccc(O)cc1)NC(=O)[C@H](CC(C)C)NC(=O)[C@H](CO)NC(=O)[C@@H](NC(=O)[C@@H](NC(=O)[C@@H](NC(=O)CNC(=O)[C@H](CCC(=O)O)NC(=O)C(C)(C)NC(=O)[C@@H](N)Cc1ccc(O)cc1)[C@@H](C)O)C(C)C)C(C)C)C(=O)NC(C)(C)C(=O)N[C@@H](CC(C)C)C(=O)N[C@@H](CC(=O)O)C(=O)N[C@@H](CCCCN)C(=O)N[C@@H](CCC(N)=O)C(=O)N[C@@H](C)C(=O)N[C@@H](CCC(N)=O)C(=O)NC(C)(C)C(=O)N[C@@H](CCC(=O)O)C(=O)N[C@@H](Cc1ccccc1)C(=O)N[C@H](C(=O)N[C@@H](CCCCN)C(=O)N[C@@H](Cc1c[nH]c2ccccc12)C(=O)N[C@@H](CC(C)C)C(=O)N[C@@H](CC(C)C)C(=O)N[C@@H](CCCCN)C(=O)NCC(=O)NCC(=O)N1CCC[C@H]1C(=O)N[C@@H](CO)C(=O)N[C@@H](CO)C(=O)NCC(=O)N[C@@H](C)C(=O)N1CCC[C@H]1C(=O)N1CCC[C@H]1C(=O)N1CCC[C@H]1C(=O)N[C@@H](CO)C(=O)N[C@@H](CCCCNC(=O)CNC(=O)CNC(=O)CNC(=O)CNC(=O)CCCCCCCCCCCCCCC(=O)O)C(N)=O)C(C)C [Compound 7] | > 1000 nM | 

— US12122815B2, “GIP receptor agonist peptide compounds and uses thereof” (TAKEDA PHARMACEUTICAL COMPANY LIMITED, priority 2018, dated 2024)
